The text below walks through data of patent publication US5656637A, “Thiazole derivatives” (Yamanouchi Pharmaceutical Co., Ltd., priority 1990, dated 1997).

The chains behind the UniProt entries cited, without tags or fusion partners. Residues count along the entry.
UniProt P35563, 24-483: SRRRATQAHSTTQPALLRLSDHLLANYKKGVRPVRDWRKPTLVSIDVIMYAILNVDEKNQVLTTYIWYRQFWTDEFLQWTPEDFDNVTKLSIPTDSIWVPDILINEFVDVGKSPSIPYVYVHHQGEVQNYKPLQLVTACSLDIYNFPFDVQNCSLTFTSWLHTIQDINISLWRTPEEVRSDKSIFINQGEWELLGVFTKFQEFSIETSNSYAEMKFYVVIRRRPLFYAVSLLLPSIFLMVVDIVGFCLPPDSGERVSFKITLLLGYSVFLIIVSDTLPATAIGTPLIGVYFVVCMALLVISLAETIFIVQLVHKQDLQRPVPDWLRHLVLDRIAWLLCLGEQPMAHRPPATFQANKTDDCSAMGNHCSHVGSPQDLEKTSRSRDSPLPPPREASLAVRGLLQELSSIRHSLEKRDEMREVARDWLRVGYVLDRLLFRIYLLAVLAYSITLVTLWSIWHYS

Each structure is given as a SMILES string.

This assay has as its target T1, 5-HT3 receptor (Rattus norvegicus, UniProt P35563).
T1 construct: Male Wistar rats, 9 weeks old, were anesthetized with urethane; from tissue; host or cells: whole animal in vivo: anesthetized male Wistar rat (endogenous receptor; tissue not given)
Description: 5-HT3 receptor stimulating action (Bezold-Jarisch reflex evoking action) in anesthetized rat, i.v. The format is in vivo, rat (male Wistar). The procedure: Male Wistar rats, 9 weeks old, were anesthetized with urethane 1 g/kg i.p. and the blood pressure and the heart rate were determined under artificial ventilation.
1) 5-HT3 receptor stimulating action (Bezold-Jarisch reflex evoking action)

With `NCCc1c[nH]c2ccc(O)cc12` [Serotonin, serotonin], the “BJ reflex evoking activity Emax (maximal bradycardiac response)” value (i.v., anesthetized rat) amounted to 257.9 beats/min. Also, under “rat, iv, read-out: BJ reflex evoking activity ED50”, the ED50 turned out to be 0.0156 mg/kg.
